Assay results as given in PMC4266452, “Prediction of Thorough QT study results using action potential simulations based on ion channel screens” (Journal of Pharmacological and Toxicological Methods, 2014).
Values belong to the molecule of their own block, whether it stands above or below them.

Chains of the proteins cited; added tags and fusions are not shown. Lines headed by an entry give the natural chain unless they say otherwise; changes in a name come on top.
UniProt Q14524, whole entry: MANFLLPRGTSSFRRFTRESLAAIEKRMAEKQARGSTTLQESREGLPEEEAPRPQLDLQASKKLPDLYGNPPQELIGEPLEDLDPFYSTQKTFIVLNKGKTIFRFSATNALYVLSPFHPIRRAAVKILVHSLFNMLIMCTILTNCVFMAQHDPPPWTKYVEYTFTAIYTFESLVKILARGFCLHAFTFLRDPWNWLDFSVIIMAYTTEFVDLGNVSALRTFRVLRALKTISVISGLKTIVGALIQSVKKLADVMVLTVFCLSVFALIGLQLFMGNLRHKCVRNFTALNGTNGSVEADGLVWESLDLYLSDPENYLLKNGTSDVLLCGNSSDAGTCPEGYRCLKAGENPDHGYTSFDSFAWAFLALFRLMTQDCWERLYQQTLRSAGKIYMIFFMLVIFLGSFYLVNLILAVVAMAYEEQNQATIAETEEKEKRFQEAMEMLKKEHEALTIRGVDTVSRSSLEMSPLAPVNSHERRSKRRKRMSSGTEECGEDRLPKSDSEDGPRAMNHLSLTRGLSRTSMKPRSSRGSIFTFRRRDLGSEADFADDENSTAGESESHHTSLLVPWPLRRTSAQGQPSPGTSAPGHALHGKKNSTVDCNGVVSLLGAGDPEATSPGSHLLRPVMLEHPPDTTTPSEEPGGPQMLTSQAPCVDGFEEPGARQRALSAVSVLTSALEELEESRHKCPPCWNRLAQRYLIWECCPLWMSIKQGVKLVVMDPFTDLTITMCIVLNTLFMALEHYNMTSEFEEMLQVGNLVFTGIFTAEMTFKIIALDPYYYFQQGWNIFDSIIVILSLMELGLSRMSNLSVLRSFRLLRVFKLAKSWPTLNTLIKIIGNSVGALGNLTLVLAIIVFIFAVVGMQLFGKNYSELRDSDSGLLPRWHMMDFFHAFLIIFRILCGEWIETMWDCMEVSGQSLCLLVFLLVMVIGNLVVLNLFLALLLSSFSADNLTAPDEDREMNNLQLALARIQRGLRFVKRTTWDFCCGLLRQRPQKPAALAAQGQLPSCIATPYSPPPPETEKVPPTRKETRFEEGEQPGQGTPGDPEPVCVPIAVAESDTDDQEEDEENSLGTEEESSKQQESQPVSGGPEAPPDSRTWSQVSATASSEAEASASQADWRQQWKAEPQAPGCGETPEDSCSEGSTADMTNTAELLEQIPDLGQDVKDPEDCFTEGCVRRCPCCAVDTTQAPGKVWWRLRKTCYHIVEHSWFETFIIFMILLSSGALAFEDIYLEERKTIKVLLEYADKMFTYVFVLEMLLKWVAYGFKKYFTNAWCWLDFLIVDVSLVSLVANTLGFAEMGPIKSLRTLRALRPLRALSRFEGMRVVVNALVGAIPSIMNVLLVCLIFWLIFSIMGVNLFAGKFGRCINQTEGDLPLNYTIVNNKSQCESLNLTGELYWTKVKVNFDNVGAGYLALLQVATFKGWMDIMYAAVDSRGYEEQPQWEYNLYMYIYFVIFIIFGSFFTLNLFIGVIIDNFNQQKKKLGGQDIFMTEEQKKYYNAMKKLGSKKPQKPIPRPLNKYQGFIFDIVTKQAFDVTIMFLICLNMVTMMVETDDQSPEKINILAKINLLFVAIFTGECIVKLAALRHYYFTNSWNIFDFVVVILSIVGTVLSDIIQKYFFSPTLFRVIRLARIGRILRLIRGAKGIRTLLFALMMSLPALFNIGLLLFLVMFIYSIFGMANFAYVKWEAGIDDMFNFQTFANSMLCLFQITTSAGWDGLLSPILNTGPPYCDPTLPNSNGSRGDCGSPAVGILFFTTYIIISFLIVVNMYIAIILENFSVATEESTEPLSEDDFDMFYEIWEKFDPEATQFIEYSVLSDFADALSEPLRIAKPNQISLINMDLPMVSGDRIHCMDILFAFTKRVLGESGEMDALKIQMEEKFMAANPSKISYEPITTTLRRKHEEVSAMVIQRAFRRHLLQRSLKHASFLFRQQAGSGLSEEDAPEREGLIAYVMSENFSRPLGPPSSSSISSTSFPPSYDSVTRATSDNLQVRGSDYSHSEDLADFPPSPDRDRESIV
UniProt Q12809: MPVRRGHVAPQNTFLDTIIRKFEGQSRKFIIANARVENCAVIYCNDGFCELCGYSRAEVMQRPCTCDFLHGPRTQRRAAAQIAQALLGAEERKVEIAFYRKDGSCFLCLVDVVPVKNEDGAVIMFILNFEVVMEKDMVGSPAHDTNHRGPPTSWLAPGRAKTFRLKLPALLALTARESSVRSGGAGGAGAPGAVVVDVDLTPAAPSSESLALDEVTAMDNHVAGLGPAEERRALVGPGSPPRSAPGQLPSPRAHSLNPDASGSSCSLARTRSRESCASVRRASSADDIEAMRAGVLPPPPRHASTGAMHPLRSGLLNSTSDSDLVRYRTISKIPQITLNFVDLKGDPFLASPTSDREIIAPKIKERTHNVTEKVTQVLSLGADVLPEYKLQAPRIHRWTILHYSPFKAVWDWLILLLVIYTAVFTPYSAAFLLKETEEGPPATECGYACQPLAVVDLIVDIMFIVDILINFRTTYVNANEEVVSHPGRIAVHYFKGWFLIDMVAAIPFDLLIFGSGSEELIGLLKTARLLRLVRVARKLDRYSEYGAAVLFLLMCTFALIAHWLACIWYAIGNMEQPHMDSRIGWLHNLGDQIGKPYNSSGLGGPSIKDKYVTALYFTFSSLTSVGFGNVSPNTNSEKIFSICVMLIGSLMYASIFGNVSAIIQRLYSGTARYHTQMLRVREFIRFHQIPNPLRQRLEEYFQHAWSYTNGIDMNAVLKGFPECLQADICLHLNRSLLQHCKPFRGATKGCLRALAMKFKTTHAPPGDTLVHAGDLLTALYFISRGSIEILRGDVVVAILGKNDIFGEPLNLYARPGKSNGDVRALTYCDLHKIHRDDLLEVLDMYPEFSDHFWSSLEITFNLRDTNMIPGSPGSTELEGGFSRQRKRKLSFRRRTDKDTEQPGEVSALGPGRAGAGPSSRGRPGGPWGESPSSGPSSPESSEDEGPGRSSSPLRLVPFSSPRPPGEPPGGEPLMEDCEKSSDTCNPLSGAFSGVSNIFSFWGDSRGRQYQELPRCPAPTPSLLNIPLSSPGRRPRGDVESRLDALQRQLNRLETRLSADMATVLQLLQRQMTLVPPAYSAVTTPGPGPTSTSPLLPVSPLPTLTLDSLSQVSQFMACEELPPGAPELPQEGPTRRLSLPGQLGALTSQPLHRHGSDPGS

Tests used:
NaV1.5 [1] = target: T1, NaV1.5 (Homo sapiens, UniProt Q14524); test: IonWorks Quattro NaV1.5 screen (AstraZeneca, Q); settings: −log10 of IC50 in Molar, Hill n = 1, 0.0 = pIC50 ≤ 0 fitted
[2] = Plasma concentration (Cmax) during the TQT study, total and calculated free; settings: Cmax 50mg/kg
hERG [3] = target: T2, hERG (Homo sapiens, UniProt Q12809); test: cell-based
NaV1.5 [4] = target: T1, NaV1.5; test: Second IonWorks Quattro NaV1.5 screen (GSK, Q2)
hERG [5] = target: T2, hERG; test: IonWorks Quattro hERG screen (AstraZeneca, Q)

Compound: Cc1nc(Nc2ncc(C(=O)Nc3c(C)cccc3Cl)s2)cc(N2CCN(CCO)CC2)n1.O [Dasatinib]
- NaV1.5 pIC50 (Q) (NaV1.5 [1]): 4.0

- Cmax FREE [2]: 68.1052 nM
Compound: CO[C@H]1C[C@@H]2CC[C@@H](C)[C@@](O)(O2)C(=O)C(=O)N2CCCC[C@H]2C(=O)O[C@H]([C@H](C)C[C@@H]2CC[C@@H](OCCO)[C@H](OC)C2)CC(=O)[C@H](C)/C=C(\C)[C@@H](O)[C@@H](OC)C(=O)[C@H](C)C[C@H](C)/C=C/C=C/C=C/1C [Everolimus]

Compound: Cc1c(O)cccc1C(=O)N[C@@H](CSc1ccccc1)[C@H](O)CN1C[C@H]2CCCC[C@H]2C[C@H]1C(=O)NC(C)(C)C [Nelfinavir]
- IC50 (hERG [3]): 501 µM
- NaV1.5 pIC50 (Q2) (NaV1.5 [4]): 3.3

Compound: N[C@@H](CC(=O)N1CCn2c(nnc2C(F)(F)F)C1)Cc1cc(F)c(F)cc1F [Sitagliptin]
- IC50 (hERG [5]): 1000 µM

Compound: CCN(CC)CCNC(=O)c1c(C)[nH]c(/C=C2\C(=O)Nc3ccc(F)cc32)c1C [Sunitinib]
- NaV1.5 pIC50 (Q2) (NaV1.5 [4]): 4.4
